Laboratory results: paper PMC4707509, “TSPO ligand residence time: a new parameter to predict compound neurosteroidogenic efficacy” (Scientific Reports, 2016)

molecular target: T1, TSPO (Rattus norvegicus, UniProt P16257); test: Simplified (one-concentration) competition kinetic association assay; assay type: binding; settings: unlabeled ligand at three-fold Ki only
T1 construct: Membranes from rat kidneys were prepared as described previously; from tissue; host or cells: rat kidney membranes
Procedure: The unlabeled TSPO ligand kinetic parameters were assessed using the theoretical model of Motulsky and Mahan[32]. Unlike methods in which one compound is pre-equilibrated with the receptor, this approach involves the simultaneous addition of both radioligand and competitor to receptor preparation, so that at t = 0 all receptors are unoccupied. […] The degree of bound to TSPO was assessed at multiple time points by filtration harvesting and liquid scintillation counting, as above described. […] For ‘simplified’ competition kinetic association assays, the experiments were performed using concentration of unlabeled TSPO ligands corresponding to three-fold their Ki.
Association and dissociation rates for unlabeled TSPO ligands were calculated by fitting the data in the competition association model using the ‘kinetics of competitive binding’ assay, defining the amount of radioligand bound to receptor ([RL]) as a function of time[32]: […]

koff [s⁻¹]	kon [M⁻¹ s⁻¹]	Compound
0.00157	132000	CCCN(CCC)C(=O)C(=O)c1c(-c2ccccc2)[nH]c2ccccc12 [PIGA719]
0.00065	363000	CCCCCCN(CCCCCC)C(=O)C(=O)c1c(-c2ccccc2)[nH]c2ccccc12 [PIGA720]
0.000133	71700	CCN(Cc1ccccc1)C(=O)C(=O)c1c(-c2ccc(Cl)cc2)[nH]c2ccc(Cl)cc12 [PIGA823]
0.0005	1510	CCCCCCN(CCCCCC)C(=O)C(=O)c1c(-c2ccc(C(=O)O)cc2)[nH]c2ccccc12 [PIGA1214]
